Test results: PubChem BioAssay AID924 (National Center for Advancing Translational Sciences (NCATS), 2007)
Only a part is listed here, and it is no random draw. Some results for these compounds are left out of this collection, so the calls shown say nothing about other tests. Records with an inconclusive call do not appear. Active and inactive are the calls of the source. Calls follow the shape of the dose curve; as a rule, active = well fitted cell-killing curve with a large enough effect; inconclusive = small, poorly fitted or top-dose-only effect; inactive = no such curve, though single readings can be large or run the other way.

Assay: qHTS Screen for Compounds that Selectively Target Cancer Cells with p53 Mutations: Cytotoxicity of p53ts Cells at the Permissive Temperature;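 also: 0% = DMSO and -100% = full killing by reference compound; nearly all actives have a fitted effect of over 55% in size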
Settings: H1299-p53A138V at 32C, ATP luminescence viability, 24 h; at 46.1 µM (top of the series) unless noted

Structure (SMILES)	activity change, negative = cytotoxicity
CCOc1cccc(C(=O)NCC2(N(C)C)CCCCC2)c1	inactive: -12.1%
CN(C)C1(CNC(=O)c2ccccc2[N+](=O)[O-])CCCCC1	inactive: -4.69%
CN(C)C1CCCC1OC(=O)C(O)(c1ccccc1)c1ccccc1 (configuration not stated)	inactive: 27.4%
CCCCOc1ccccc1C(=O)NCC1(N(C)C)CCCCC1	inactive: -5.69%
CN(C)C1(CNC(=O)c2cccc(Cl)c2)CCCCC1	inactive: -4.2%
CN(C)C1(CNC(=O)c2ccccc2F)CCCCC1	inactive: 4.56%
Cc1cccc(C(=O)NCC2(N(C)C)CCCCC2)c1	inactive: -10.7%
COc1cc(C(=O)NCC2(N(C)C)CCCCC2)cc(OC)c1OC	inactive: -1.09%
CN(C)c1cccc(C(=O)NCC2(N(C)C)CCCCC2)c1	inactive: -3.44%
CC(C)Oc1ccc(C(=O)NCC2(N(C)C)CCCCC2)cc1	inactive: -6.55%
O=C(OC1CN2CCC1CC2)C(CO)(c1ccccc1)c1ccccc1 (configuration not stated)	inactive: 4.7%
CN1CC[C@H](OC(=O)[C@](O)(c2ccccc2)C2CCCC2)C1	inactive: 2.48% [at 9.22 µM]
COc1cccc(C(=O)NCC2(N3CCOCC3)CCCCC2)c1	inactive: 2.81%
CN1CCC[C@H](OC(=O)[C@](O)(c2ccccc2)C2CCCC2)C1	inactive: 2.59% [at 9.22 µM]
CC(C)COc1ccc(C(=O)NCC2(N(C)C)CCCCC2)cc1	inactive: -5.01%
C=C(C)C#C[C@@](O)(C(=O)OC1CCN(C)CC1)c1ccccc1	inactive: -3.9% [at 9.22 µM]
COc1ccc(C(=O)NCC2(N(C)C)CCCCC2)cc1Cl	inactive: -9.53%
